# Measurements reported in paper PMC3335988 (Neurochemistry international, 2011).
# Amino acid sequences for entries named in this document (tags omitted). Residues count along the entry.
# UniProt Q00961, 20-1237: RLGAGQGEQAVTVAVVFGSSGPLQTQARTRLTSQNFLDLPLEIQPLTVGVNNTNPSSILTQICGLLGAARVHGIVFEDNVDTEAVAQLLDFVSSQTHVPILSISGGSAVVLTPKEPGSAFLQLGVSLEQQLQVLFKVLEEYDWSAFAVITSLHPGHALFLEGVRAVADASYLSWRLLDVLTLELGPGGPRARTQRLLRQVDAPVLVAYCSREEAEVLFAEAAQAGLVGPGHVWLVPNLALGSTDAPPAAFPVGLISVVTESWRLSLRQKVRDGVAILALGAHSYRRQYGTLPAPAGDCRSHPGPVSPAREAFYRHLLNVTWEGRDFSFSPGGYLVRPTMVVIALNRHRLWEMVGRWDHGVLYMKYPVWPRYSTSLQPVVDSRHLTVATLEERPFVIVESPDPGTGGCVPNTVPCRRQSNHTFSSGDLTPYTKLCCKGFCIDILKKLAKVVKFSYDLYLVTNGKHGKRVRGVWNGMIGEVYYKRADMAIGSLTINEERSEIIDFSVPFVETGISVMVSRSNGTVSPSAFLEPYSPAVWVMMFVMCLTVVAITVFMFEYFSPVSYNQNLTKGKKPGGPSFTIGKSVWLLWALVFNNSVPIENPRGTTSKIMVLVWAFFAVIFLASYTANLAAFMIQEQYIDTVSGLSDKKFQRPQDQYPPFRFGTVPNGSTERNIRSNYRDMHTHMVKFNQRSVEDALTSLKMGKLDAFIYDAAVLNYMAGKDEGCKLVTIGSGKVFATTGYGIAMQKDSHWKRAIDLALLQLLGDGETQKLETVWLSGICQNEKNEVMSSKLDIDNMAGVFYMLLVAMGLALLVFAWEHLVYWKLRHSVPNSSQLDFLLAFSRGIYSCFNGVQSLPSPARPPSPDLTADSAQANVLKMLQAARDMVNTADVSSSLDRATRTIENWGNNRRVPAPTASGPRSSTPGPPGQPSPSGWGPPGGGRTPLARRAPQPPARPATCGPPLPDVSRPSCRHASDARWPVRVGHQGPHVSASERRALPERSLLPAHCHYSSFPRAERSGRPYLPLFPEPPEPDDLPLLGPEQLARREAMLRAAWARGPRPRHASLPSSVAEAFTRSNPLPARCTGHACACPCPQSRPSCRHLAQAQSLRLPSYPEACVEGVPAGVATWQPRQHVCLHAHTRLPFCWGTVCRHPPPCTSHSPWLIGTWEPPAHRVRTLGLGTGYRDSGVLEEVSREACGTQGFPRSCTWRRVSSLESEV
# UniProt Q62645, 28-1323: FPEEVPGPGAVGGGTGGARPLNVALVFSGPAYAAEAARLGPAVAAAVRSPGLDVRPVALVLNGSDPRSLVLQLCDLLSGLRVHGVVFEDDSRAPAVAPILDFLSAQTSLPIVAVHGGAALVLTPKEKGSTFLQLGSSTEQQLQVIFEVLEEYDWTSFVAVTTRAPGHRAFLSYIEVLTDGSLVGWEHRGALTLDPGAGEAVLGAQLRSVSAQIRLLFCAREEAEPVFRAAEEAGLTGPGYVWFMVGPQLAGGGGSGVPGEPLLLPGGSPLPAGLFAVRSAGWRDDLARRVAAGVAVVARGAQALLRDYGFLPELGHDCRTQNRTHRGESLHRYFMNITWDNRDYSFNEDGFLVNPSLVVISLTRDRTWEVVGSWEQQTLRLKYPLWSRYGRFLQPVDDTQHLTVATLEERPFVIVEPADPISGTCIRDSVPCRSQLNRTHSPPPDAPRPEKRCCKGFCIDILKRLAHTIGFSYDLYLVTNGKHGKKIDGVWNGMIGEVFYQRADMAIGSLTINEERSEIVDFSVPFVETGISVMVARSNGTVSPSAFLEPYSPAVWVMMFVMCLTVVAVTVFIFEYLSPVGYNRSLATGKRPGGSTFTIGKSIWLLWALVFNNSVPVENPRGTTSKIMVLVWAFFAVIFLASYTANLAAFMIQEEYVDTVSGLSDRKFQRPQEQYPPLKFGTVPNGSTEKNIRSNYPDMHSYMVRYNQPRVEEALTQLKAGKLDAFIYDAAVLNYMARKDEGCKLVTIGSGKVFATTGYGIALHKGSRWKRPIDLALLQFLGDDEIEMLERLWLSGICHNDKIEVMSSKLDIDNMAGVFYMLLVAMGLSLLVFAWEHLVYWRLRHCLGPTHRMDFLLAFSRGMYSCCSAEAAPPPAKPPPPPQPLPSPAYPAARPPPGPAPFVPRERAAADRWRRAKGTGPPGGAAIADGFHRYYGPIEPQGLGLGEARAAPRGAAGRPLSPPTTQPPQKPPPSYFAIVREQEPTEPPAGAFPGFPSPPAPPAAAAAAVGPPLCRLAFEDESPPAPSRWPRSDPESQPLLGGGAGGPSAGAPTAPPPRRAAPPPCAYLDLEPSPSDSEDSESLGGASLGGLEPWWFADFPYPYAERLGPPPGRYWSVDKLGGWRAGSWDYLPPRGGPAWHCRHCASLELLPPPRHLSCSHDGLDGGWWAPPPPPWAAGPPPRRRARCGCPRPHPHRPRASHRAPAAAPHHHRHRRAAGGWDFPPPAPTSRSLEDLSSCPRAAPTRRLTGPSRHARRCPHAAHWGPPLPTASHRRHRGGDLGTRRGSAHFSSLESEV
# UniProt Q00959, 23-1464: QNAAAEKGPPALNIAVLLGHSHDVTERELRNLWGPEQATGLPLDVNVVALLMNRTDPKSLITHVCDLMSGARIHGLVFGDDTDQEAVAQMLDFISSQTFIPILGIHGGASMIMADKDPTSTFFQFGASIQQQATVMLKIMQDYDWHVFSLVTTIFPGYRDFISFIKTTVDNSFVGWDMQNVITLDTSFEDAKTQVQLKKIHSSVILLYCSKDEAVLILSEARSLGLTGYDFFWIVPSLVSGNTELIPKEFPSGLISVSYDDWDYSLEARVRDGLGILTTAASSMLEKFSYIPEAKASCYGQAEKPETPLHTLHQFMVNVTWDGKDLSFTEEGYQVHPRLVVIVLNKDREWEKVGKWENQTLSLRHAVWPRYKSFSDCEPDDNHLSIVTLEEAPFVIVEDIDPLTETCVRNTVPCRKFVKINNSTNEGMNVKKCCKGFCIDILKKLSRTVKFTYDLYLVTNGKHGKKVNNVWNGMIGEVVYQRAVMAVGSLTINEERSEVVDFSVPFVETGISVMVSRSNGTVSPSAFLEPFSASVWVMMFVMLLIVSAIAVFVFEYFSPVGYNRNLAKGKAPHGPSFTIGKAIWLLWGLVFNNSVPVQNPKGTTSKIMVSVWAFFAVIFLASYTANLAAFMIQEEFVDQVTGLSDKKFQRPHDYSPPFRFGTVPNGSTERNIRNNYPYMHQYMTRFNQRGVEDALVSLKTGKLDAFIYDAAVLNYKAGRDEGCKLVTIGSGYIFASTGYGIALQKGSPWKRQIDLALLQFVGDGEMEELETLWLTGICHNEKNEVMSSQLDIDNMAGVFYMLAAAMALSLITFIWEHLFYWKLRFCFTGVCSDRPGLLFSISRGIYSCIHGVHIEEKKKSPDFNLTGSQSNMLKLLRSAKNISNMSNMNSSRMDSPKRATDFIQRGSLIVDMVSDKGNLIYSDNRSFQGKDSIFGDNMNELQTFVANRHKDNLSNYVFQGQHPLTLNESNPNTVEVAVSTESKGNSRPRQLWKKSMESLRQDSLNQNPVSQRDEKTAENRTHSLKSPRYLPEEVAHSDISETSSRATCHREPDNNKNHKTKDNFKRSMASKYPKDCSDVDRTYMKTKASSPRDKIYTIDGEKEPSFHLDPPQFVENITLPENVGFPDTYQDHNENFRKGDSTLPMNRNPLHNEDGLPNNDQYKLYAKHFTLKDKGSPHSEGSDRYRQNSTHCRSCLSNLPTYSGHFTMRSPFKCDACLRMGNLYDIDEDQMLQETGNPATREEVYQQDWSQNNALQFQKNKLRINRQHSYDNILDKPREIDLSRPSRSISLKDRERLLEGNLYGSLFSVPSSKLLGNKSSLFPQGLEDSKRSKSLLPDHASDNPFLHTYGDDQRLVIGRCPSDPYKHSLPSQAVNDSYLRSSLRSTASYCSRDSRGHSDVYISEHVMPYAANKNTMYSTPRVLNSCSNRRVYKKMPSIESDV
# UniProt Q00960, 27-1482: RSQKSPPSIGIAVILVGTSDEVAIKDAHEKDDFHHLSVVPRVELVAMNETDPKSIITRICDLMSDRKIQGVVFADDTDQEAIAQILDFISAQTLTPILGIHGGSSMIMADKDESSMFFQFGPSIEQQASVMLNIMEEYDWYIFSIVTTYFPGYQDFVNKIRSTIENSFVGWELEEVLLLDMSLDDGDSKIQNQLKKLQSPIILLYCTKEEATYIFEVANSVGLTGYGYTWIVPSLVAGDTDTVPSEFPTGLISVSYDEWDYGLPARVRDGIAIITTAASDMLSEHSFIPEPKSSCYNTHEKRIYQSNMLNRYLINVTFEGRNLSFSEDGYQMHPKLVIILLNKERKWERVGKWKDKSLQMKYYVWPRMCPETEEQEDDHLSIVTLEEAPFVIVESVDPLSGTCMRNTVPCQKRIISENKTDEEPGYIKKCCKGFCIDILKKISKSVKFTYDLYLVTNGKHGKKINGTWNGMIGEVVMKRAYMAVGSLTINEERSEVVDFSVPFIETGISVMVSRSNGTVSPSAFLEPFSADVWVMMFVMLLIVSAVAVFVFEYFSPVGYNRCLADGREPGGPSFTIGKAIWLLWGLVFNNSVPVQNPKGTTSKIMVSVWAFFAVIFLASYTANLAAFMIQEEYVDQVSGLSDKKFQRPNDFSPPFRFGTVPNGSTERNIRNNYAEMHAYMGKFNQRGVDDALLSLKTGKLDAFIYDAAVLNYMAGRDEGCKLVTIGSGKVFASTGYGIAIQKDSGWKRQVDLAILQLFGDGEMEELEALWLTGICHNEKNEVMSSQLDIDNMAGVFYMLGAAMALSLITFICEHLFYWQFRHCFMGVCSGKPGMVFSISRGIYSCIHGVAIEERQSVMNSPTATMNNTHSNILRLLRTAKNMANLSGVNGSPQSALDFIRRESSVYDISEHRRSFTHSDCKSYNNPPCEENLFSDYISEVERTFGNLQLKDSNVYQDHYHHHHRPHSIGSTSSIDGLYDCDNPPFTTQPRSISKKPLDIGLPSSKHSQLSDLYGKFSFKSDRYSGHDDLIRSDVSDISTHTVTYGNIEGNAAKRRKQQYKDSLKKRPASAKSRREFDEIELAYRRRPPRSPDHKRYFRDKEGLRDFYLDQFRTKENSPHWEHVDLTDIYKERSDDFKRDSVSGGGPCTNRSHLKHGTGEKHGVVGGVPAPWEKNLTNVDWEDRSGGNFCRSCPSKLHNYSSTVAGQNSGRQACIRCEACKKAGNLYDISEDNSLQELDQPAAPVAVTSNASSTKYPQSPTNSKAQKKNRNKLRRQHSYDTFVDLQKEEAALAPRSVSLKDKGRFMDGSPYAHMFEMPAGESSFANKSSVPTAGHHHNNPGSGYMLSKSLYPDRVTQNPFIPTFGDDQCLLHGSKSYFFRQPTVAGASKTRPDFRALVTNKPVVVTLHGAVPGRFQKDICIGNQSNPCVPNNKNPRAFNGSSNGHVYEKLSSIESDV
# Tests used:
# Assay type in all cases: cell-based
# Settings in all cases: 100 µM glutamate
# rat GluN1/GluN2C = rat GluN1/GluN2C (Rattus norvegicus, UniProt P35439+Q00961)
# rat GluN1/GluN2D = rat GluN1/GluN2D (Rattus norvegicus, UniProt P35439+Q62645)
# rat GluN1/GluN2A = rat GluN1/GluN2A (Rattus norvegicus, UniProt P35439+Q00959); assay: Two-electrode voltage-clamp recordings, recombinant receptors in Xenopus oocytes
# rat GluN1/GluN2B = rat GluN1/GluN2B (Rattus norvegicus, UniProt P35439+Q00960)
compound,measurement,setting,value
NCC(=O)O [glycine],nH (Hill slope),rat GluN1/GluN2C,1.5
same,nH (Hill slope),rat GluN1/GluN2D,1.6
same,nH (Hill slope),rat GluN1/GluN2A,1.2
same,nH (Hill slope),rat GluN1/GluN2B,1.8
